# Results as given in EP2739618B1, “QUINAZOLINE COMPOUNDS AS SERINE/THREONINE KINASE INHIBITORS” (Array Biopharma, Inc., priority 2011, dated 2013).
# Sequences of proteins named here, by UniProt entry; tags and fusion partners are left off. Residues count along the entry.
# UniProt P28482, 8-360: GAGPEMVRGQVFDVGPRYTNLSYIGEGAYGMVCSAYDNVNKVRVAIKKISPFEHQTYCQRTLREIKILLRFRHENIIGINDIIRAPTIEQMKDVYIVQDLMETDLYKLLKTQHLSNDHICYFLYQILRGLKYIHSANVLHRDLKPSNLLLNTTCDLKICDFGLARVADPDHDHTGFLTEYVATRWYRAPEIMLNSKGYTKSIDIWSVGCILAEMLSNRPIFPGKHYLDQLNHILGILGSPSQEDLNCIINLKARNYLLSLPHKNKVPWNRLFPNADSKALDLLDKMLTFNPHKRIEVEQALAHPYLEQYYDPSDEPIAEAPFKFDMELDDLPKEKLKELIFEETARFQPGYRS
# Biological target: T1, human ERK-2 (Mitogen Activated Kinase 1) (Homo sapiens, UniProt P28482)
# T1 construct: N-terminal 6-His fusion protein in E. coli and corresponding to aa 8-360; 6-His (N); made in house; host or cells: E. coli
# Experiment: ERK-2 Enzymatic Assay
# Format: biochemical
# Conditions: TABLE I; 5nM ERK-2 enzyme, 25µM ATP, S/T17 peptide substrate; single assay or mean of multiple assays
# Description: Compounds were tested in an enzymatic assay using human ERK-2 (Mitogen Activated Kinase 1), recombinantly expressed as an N-terminal 6-His fusion protein in E. coli and corresponding to aa 8-360. The substrate used was the fluorescent Omnia peptide S/T17 (Invitrogen of Carlsbad, CA; Cat. KNZ1171C). Test compounds were diluted in DMSO in 3-fold serial dilutions at 100x final concentrations. […] The assay was run at ambient temperature in a white 384-well polypropylene plate (Nunc, Inc of Naperville, IL; Cat. 267462) collecting data every 50 seconds for approximately 30 minutes on an Envision plate reader (PerkinElmer, Inc. of Waltham, MA); Excitation 340 nm/Emission 495 nm. The data collected from each well was fit to a straight line and the resulting rates were used to calculate percent of control. Percent of control was plotted against compound concentration and IC50 values were determined using a four-parameter fit. Representative data is in TABLE I and TABLE II. The reported IC50 may be from a single assay or the mean of multiple assays.
row,IC50,SMILES
1,1.2 nM,"C[C@@H](CO)Nc1ncc2ccc(C(=O)N[C@@H](c3ccc(Cl)c(F)c3)c3cnn(C)c3)cc2n1 (stereo in doubt) [Compound I-15, 2-((S)-2-hydroxy-1-methyl-ethylamino)-quinazoline-7-carboxylic acid [(S)-(4-chloro-3-fluoro-phenyl)-(1-methyl-1H-pyrazol-4-yl)-methyl]-amide]"
2,0.8 nM,"Cn1cc(C(NC(=O)c2ccc3cnc(NC4CCOCC4)nc3c2)c2ccc(Cl)c(F)c2)cn1 (stereo not drawn) [Compound I-2, 2-(Tetrahydro-pyran-4-ylamino)-quinazoline-7-carboxylic acid [(4-chloro-3-fluoro-phenyl)-(1-methyl-1H-pyrazol-4-yl)-methyl]-amide]"
3,1.4 nM,"Cn1cc([C@@H](NC(=O)c2ccc3cnc(NC4CCOCC4)nc3c2)c2ccc(Cl)c(F)c2)cn1 [Compound I-12, 2-(tetrahydropyran-4-ylamino)-quinazoline-7-carboxylic acid [(S)-(4-chloro-3-fluoro-phenyl)-(1-methyl-1H-pyrazol-4-yl)-methyl]-amide]"
